{
  "sequences": {"note": "The chains behind the UniProt entries cited, without tags or fusion partners.", "UniProt O15296, whole entry": "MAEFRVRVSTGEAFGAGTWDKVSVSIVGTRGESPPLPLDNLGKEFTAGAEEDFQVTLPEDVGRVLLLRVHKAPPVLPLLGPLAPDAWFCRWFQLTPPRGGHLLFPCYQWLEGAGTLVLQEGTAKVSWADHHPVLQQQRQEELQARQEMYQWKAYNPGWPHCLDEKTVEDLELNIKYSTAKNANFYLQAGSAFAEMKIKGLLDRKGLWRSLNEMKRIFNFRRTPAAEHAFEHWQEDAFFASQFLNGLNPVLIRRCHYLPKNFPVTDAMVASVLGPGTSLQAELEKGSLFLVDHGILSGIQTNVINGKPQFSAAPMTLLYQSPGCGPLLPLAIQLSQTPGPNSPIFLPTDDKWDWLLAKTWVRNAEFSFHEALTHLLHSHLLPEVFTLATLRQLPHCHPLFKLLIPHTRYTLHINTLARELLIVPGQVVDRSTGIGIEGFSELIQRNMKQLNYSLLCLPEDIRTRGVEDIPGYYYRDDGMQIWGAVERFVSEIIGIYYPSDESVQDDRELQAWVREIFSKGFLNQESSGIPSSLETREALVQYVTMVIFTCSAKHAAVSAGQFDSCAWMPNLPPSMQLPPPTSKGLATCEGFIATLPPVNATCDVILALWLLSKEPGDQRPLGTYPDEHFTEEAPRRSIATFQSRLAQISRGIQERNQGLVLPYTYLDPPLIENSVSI"},
  "source": "PubChem BioAssay AID881",
  "about": "(National Center for Advancing Translational Sciences (NCATS), 2007)",
  "note": "The entries are a selection whose mix differs from that of the whole data set. The source made the active and inactive calls. The call rests on the fitted dose curve; in most records, active means well fitted inhibition curve with a large enough effect; inconclusive means small, poorly fitted or top-dose-only effect; inactive means no such curve, though single readings can be large or run the other way. On the % scale 0 is the no-effect control and ±100 the full control effect.",
  "data": [
    {"target": "Polyunsaturated fatty acid lipoxygenase ALOX15B (Homo sapiens) (UniProt O15296)", "experiment": "qHTS Assay for Inhibitors of 15-hLO-2 (15-human lipoxygenase 2); further: nearly all actives have a fitted effect of over 60% in size", "details": "purified 15hLO-2, xylenol orange hydroperoxide absorbance; at 57.1 µM unless noted", "description": "Assay Overview: NIH Molecular Libraries Screening Centers Network [MLSCN] NIH Chemical Genomics Center [NCGC] MLSCN Grant: MH081283-01A1 PI Name: Holman, T.R., University of California, Santa Cruz Human lipoxygenase 15hLO-2 is a member of the closely related lipoxygenase family of enzymes which catalyze the site-specific oxidation of arachidonic acid to various hormone precursor molecules and as such is a candidate for drug development in a variety of disease areas, such as cancer and inflammation. Inhibition of 15hLO-2 activity was screened by utilizing arachidonic acid as a substrate. The extent of hydroperoxide product formation was measured by a secondary chromogenic reaction in which xylenol orange (XO, Sigma-Aldrich, cat. number 39,818-7) reacts with the ferric ions produced from the reaction between the hydroperoxide and ferrous ions. The Fe(III)-XO complex is characterized with red-shifted absorbance at 560 nm. A purified preparation of human 15hLO-2 was supplied by Professor Ted Holman, University of California, Santa Cruz.\nAssay Protocol: Buffer: 25 mM Hepes pH 7.5, 0.01% Triton X-100. Reagents/Controls: Buffer in columns 3 and 4 as negative control (no enzyme). Substrate solution: 45 uM arachidonic acid (Sigma-Aldrich, St. Louis, MO) final concentration dispensed throughout the plate. Enzyme: 50 nM 15hLO-2 final concentration in columns 1, 2, 5-48. Column 1 is neutral (100% activity). Column 2 contained pin-transferred titration of NDGA (nordihidroguaiaretic acid, Sigma-Aldrich, N 5023, top concentration 10 mM in DMSO, then 1:2 dilution in duplicate). (Dilution factor: 23 nL into 4 uL.) Chromogenic detection reagent (divalent iron/xylenol orange, Fe-XO): 200 uM xylenol orange plus 300 uM ferrous ammonium sulfate prepared freshly in 50 mM sulfuric acid. Assay Steps: Three uL of enzyme were dispensed to 1536-well Greiner black clear bottom plates. Compounds and controls (23 nL) were transferred via Kalypsys PinTool. The plates were incubated for 15 min at room temperature, and then 1 uL of substrate solution was added to start the reaction. After room temperature incubation for 90 minutes, 4 uL of Fe-XO solution was added to each well followed by a short spin (1000 rpm, 15 sec) and the plates were then incubated for 30 min. The absorbance at 405 and 573 nm were measured using ViewLux (Perkin-Elmer) High-throughput CCD imager and absorbance protocol settings. The 573-to-405 absorbance ratio was used to compute reaction progress.", "values": [
      {"compound": "c1ccc(CN2CCC(Nc3ccccc3)CC2)cc1", "activity change, negative = inhibition": "inactive: -0.543%"},
      {"compound": "ClCCOP(OCCCl)OCCCl", "activity change, negative = inhibition": "inactive: -1.1%"},
      {"compound": "N/C(=N\\O)c1c(N)no[n+]1[O-]", "activity change, negative = inhibition": "inactive: 6.14%"},
      {"compound": "CCOc1ncccc1C(=O)NCC1(N2CCOCC2)CCCCC1", "activity change, negative = inhibition": "inactive: 4.37%"},
      {"compound": "O=C(O)C1(Nc2ccccc2)CCN(Cc2ccccc2)CC1", "activity change, negative = inhibition": "inactive: -8.82% [at 11.4 µM]"},
      {"compound": "CCC(CO)(C(=O)OC1CN2CCC1CC2)c1ccccc1", "note": "(centres undefined)", "activity change, negative = inhibition": "inactive: -0.327%"},
      {"compound": "Fc1ccccc1NC1CCN(Cc2ccccc2)CC1", "activity change, negative = inhibition": "inactive: -13.8%"},
      {"compound": "COc1ccc(NC2CCN(CCc3ccccc3)CC2)c(OC)c1", "activity change, negative = inhibition": "inactive: 0.422%"},
      {"compound": "O=C(NCC1(N2CCOCC2)CCCCC1)c1cc2ccccc2o1", "activity change, negative = inhibition": "inactive: 1.64%"},
      {"compound": "O=C(OC1CN2CCC1CC2)C1c2ccccc2Oc2ccccc21", "note": "(centres undefined)", "activity change, negative = inhibition": "inactive: 23.2%"},
      {"compound": "CCOP(=O)(Cl)Cl", "activity change, negative = inhibition": "inactive: 0.69%"},
      {"compound": "NC1CCCCC1.NP(=O)(O)N(CCCl)CCCl", "activity change, negative = inhibition": "inactive: 2.57% [at 11.4 µM]"},
      {"compound": "N#CC1(Nc2ccccc2)CCN(CCc2ccccc2)CC1", "activity change, negative = inhibition": "inactive: 23.6%"},
      {"compound": "O=C(NCC1(N2CCOCC2)CCCCC1)c1cc(=O)[nH]c2ccccc12", "activity change, negative = inhibition": "inactive: 3.13%"}
    ]}
  ]
}
